The chains behind the UniProt entries cited, without tags or fusion partners.
UniProt P33981, whole entry: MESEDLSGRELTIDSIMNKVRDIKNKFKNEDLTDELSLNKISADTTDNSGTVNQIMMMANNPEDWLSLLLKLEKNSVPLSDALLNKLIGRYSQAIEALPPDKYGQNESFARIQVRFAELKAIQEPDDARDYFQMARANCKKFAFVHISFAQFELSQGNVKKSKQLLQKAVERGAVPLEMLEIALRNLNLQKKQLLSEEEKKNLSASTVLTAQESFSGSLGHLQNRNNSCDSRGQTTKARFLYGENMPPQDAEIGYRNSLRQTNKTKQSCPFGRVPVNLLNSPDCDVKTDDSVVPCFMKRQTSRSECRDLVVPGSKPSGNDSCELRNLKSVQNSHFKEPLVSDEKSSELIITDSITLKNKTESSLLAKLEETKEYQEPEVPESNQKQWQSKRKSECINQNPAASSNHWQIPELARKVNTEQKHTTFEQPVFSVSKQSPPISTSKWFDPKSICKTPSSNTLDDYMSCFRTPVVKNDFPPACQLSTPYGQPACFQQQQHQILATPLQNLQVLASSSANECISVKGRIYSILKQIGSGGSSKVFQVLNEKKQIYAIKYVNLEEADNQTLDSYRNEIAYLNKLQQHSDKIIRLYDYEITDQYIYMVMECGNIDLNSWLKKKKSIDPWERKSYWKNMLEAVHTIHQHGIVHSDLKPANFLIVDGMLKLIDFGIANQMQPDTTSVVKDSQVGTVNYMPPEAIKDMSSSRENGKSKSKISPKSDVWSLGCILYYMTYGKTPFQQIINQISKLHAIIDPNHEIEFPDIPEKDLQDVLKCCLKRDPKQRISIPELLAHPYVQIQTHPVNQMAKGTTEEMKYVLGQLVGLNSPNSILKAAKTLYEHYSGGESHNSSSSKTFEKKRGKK

In US20140255392A1 (BAYER INTELLECTUAL PROPERTY GMBH, priority 2011, published 2014):

Molecular target: human kinase Mps-1 (Homo sapiens, UniProt P33981)
Experiment: Mps-1 kinase assay (TR-FRET)
Conditions: read-out: Mps-1 IC50; N-terminally GST-tagged human full length recombinant Mps-1; 10 μM ATP; 1 μM peptide substrate; 60 min at 22° C.

IC50: 40.6 nM
Structure (SMILES): Cc1cc(-c2cnc3c(NCCC(F)(F)F)cc(Oc4cccc(F)c4)cn23)ccc1C(=O)NC1(C#N)CCC1
